We go through 1 substance from patent US20170290925A1, “Conjugates And Conjugating Reagents” (priority 2014, published 2017).

The experiment deals with JIMT-1 cells (breast carcinoma) xenograft. Briefly: JIMT-1 mouse xenograft study (Example 15). The class given is in vivo, NMRI nude mice. The conditions noted are these: single 5 mg/kg dose i.v. On the procedure: Trastuzumab-drug conjugate 27 was prepared from reagent 9 by the method described in Example 5.
Healthy female NMRI nude mice (RjOrl:NMRI-Foxn1^nu/Foxn1^nu) aged 6 weeks at arrival were used for cell inoculation. The animals were maintained in SPF health status according to the FELASA guidelines in housing rooms under controlled environmental conditions.
Tumours were induced by subcutaneous injection of 5×10^6 JIMT-1 cells (breast carcinoma) in 200 μL of cell suspension in PBS into the right flank. Matrigel (40 μL Matrigel per 200 μL cell suspension) was added shortly before inoculation of tumour cells. Tumours were measured twice a week with calipers, and the volume was estimated using the formula: […]
When the tumour volumes reached a mean tumour volume of approximately 150 mm^3, the animals were randomized into groups of ten mice (128 mm^3 mean tumor volume) and treatment was initiated (Day 0). All test substances were injected via the tail vein (i.v., bolus). […]
Mice viability and behaviour were recorded every day. Body weights were measured twice a week. The animals were euthanized when a humane endpoint was reached (e.g. calculated tumour weight of >10% body weight, animal body weight loss of >20% compared to the body weight at group distribution, ulceration of tumours, lack of mobility, general signs of pain), or at a pre-determined study end date.

On to “Kadcyla®: commercial product, comparative in JIMT-1 xenograft studies [reference compound]”, for which the “Effect on tumour volume” value is recorded as “little effect over the vehicle control”.
